Protein sequences, listed by entry. Tags and fused reporters are not part of them. Residues count along the entry.
UniProt P05556, 21-798 limits assumed: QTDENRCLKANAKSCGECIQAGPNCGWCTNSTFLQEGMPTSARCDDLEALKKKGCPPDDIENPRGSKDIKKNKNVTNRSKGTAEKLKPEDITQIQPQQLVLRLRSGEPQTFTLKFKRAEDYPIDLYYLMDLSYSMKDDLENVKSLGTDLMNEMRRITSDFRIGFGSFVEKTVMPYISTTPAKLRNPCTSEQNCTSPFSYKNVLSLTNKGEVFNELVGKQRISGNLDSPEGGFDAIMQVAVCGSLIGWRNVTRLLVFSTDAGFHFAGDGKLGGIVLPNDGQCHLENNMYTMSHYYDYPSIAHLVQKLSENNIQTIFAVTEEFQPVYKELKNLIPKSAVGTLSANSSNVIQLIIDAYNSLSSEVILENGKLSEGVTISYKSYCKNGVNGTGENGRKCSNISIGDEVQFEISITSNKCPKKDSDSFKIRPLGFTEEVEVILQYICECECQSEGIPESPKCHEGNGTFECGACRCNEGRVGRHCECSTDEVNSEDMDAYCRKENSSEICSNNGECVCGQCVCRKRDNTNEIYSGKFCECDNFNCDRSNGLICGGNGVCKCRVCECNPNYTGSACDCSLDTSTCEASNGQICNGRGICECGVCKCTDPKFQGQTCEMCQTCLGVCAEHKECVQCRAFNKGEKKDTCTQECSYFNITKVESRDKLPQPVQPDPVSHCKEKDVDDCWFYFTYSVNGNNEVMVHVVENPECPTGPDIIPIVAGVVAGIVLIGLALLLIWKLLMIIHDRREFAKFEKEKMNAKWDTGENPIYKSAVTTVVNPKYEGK
UniProt P13612, 34-1032 limits assumed: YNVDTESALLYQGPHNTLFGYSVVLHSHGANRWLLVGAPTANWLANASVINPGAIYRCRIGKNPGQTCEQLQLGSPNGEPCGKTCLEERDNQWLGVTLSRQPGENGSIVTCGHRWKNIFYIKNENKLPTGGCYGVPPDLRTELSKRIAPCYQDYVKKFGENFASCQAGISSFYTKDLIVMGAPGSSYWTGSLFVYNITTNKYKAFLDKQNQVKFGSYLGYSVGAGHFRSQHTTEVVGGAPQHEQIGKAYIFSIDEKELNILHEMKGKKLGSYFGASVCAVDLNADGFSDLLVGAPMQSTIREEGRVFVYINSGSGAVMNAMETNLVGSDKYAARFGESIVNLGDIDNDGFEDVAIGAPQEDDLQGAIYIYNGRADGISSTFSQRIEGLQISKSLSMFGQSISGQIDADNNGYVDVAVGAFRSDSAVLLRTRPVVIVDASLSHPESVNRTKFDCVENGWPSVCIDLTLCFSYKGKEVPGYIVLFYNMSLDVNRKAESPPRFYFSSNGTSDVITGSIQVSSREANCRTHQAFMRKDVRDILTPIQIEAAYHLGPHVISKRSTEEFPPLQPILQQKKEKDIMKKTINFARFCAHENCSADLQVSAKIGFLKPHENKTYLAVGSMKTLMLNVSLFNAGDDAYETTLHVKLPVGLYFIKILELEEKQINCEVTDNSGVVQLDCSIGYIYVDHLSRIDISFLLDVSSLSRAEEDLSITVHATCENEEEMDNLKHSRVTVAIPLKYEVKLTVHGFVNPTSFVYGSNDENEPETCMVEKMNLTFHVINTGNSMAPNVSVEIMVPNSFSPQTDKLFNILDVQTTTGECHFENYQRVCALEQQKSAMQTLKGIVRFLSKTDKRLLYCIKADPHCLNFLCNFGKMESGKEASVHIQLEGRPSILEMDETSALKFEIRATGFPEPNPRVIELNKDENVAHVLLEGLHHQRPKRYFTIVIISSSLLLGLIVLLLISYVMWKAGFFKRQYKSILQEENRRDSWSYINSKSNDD
UniProt P26010, 20-798 limits assumed: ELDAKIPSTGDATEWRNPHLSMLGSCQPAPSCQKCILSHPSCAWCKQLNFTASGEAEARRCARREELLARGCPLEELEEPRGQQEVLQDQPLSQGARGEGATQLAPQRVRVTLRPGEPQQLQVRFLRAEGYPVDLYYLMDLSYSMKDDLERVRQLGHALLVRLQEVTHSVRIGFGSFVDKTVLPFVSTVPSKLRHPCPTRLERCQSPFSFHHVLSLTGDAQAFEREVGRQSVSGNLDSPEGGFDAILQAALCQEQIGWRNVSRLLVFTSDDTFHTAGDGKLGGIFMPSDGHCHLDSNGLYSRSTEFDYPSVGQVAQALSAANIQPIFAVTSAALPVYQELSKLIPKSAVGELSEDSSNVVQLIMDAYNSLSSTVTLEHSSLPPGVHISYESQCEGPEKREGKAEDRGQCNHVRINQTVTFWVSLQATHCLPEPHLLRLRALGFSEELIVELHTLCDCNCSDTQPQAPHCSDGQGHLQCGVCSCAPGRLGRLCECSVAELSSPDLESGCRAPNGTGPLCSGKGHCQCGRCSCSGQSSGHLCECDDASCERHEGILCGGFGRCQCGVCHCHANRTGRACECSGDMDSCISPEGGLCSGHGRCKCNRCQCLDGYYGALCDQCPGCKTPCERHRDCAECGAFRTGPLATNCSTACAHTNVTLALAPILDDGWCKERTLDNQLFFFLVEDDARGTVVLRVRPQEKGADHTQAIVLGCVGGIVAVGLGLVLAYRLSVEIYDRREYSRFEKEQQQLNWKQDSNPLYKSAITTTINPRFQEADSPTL

According to patent US20050192279A1, “Pyridazinones as antagonists of alpha4 integrins” (priority 2004, published 2005):

Legend:
[1] = target: α4β1 (Homo sapiens, UniProt P05556+P13612); experiment: Ramos Cell Adhesion Assay (α4β1 Mediated Adhesion/VCAM-1); settings: read-out: α4β1 IC50; Ramos cell adhesion to hVCAM-1
[2] = target: human α4β7 integrin (Homo sapiens, UniProt P13612+P26010); experiment: α4β7-K562 Cell Adhesion Assay (α4β7 Mediated Adhesion/MAdCAM-1); settings: read-out: α4β7 IC50; α4β7-K562 cell adhesion to hMAdCAM-1
[3] = system: alpha 4 beta 7-positive cells; experiment: Intraperitoneal Delayed Type Hypersensitivity (IP-DTH) Response; assay type: in vivo, mice; settings: 30 mg/kg sc bid × 2; peritoneal cells 48 h after antigen challenge

pIC50 [1]	pIC50 [2]	SMILES	% Decrease in recruited α4β7 + cells [3]
6.22	6.23	COc1cnn(C)c(=O)c1-c1ccc(C[C@H](NC(=O)[C@@H]2C3CCC(CC3)N2C(=O)CCC(C)O)C(=O)O)cc1 (stereo partly shown)	–
6.33	6.40	COc1cnn(C)c(=O)c1-c1ccc(C[C@H](NC(=O)C2CCCN2C(=O)OCc2ccccc2)C(=O)O)cc1 (stereo partly shown)	–
6.54	8.30	O=C(N[C@@H](Cc1ccc(-c2c(OCCO)cnn(CCO)c2=O)cc1)C(=O)O)c1c(Cl)cccc1Cl	0%

pIC50: −log10 of the molar value.
